Reported vapor pressure values for industrial, environmental and drug-like chemicals

Vapor pressure is log10 of mmHg; the set covers 15 to 30 °C, mostly 20 to 25 °C.
"n/a" marks a cell with nothing listed here.
"via" names the databases from which the curators took the value.

| SMILES | name | log VP (log10 mmHg) | via |
|---|---|---|---|
| COc1cc(OC)nc(NC(=O)NS(=O)(=O)Nc2ccccc2C(=O)N(C)C)n1 | Orthosulfamuron | -6.068 | OCHEM, PubChem, eChemPortal |
| CC(=O)OC(CC(C)C)CC(C)C | 2,6-Dimethylheptan-4-yl acetate | 0.312 | eChemPortal |
| CCCCCCCCCCCC(=O)OCCS(=O)(=O)[O-].[Na+] | Dodecanoic acid, 2-sulfoethyl ester, sodium salt | -7.992 | eChemPortal |
| C[Si](C)(C)O | Trimethylsilanol | 1.131 | eChemPortal |
| CCOCCCNC(=O)C(O)C(C)(C)CO (configuration not stated) | N-(3-Ethoxypropyl)-2,4-dihydroxy-3,3-dimethylbutanamide | -2.481 | eChemPortal |
| CCCCNS(=O)(=O)c1ccccc1 | N-Butylbenzenesulfonamide | -6.526 | eChemPortal |
| O=C1CCCCCN1C(=O)Nc1ccc(Cc2ccc(NC(=O)N3CCCCCC3=O)cc2)cc1 | n/a | -5.468 | eChemPortal |
| COc1ccc(NC(=O)[C@@H]2C[C@H](C)CC[C@H]2C(C)C)cc1 | n/a | -10.23 | eChemPortal |
| CC(=O)C1CCc2cc(F)ccc2O1 (configuration not stated) | 1-(6-Fluoro-3,4-dihydro-2H-chromen-2-yl)ethanone | -2.684 | eChemPortal |
| CCCCN1CCCC1=O | 2-Pyrrolidinone, 1-butyl- | -1.011 | eChemPortal |
| C=CC(=O)OCCCCOc1ccc(C(=O)Oc2ccc(OC(=O)c3ccc(OCCCCOC(=O)C=C)cc3)c(C)c2)cc1 | n/a | -10.46 | eChemPortal |
| CCCCCCCCCCCCCCCC(=O)N1C(=O)CCC1C(=O)[O-].[Na+] (configuration not stated) | Sodium 1-hexadecanoyl-5-oxopyrrolidine-2-carboxylate | -6.894 | eChemPortal |
| COCc1cc(N)ccc1N | 2-Methoxymethyl-p-phenylenediamine | -7.173 | eChemPortal |
| CC(O)CC(C)CCc1ccccc1 (configuration not stated) | 4-Methyl-6-phenylhexan-2-ol | -2.9 | eChemPortal |
| Cc1ccc(S(C)(=O)=O)cc1[N+](=O)[O-] | 4-Methylsulfonyl-2-nitrotoluene | -6.648 | eChemPortal |
| C=C(C)OC(C)=O | Isopropenyl acetate | 1.766 | PubChem, eChemPortal |
| C[Si](Cl)(Cl)CCC(F)(F)C(F)(F)C(F)(F)C(F)(F)C(F)(F)C(F)(F)F | Dichloromethyl((perfluorohexyl)ethyl)silane | -3.523 | eChemPortal |
| CCCCN(CCCC)C(=S)SCSC(=S)N(CCCC)CCCC | 4,4'-Methylene bis(dibutyldithiocarbamate) | -9.953 | eChemPortal |
| C1CC2C3CC(C2C1)C1(CCCO1)C3 (configuration not stated) | Decahydrospiro[furan-2(3H),5'-[4,7]methano[5H]indene] | -1.83 | eChemPortal |
| CCCCN[Si](C)(NCCCC)NCCCC | Silanetriamine, N,N',N''-tributyl-1-methyl- | -1.87 | eChemPortal |
| COCCCn1c(=O)c2c(N)c3c(=O)c4ccccc4c(=O)c3c(N)c2c1=O | C.I. Disperse Blue 60 | -13.05 | eChemPortal |
| CCCCCCCCCCCC(=O)Cl | Dodecanoyl chloride | -2.372 | eChemPortal |
| CNC=O | N-Methylformamide | -0.597 | OCHEM, PubChem, eChemPortal |
| COC(C=CC(OC)OC)OC | 1,1,4,4-Tetramethoxy-2-butene | -0.523 | eChemPortal |
| CO[Si](OC)(OC)OC | Tetramethyl orthosilicate | 1.13 | eChemPortal |
| CCCCCCCC(=O)O[C@H]1CO[C@H]2[C@@H]1OC[C@H]2OC(=O)CCCCCCC | Isosorbide dicaprylate | -5.175 | eChemPortal |
| CO[Si](CCCNCCNCCN)(OC)OC | n/a | -3.949 | eChemPortal |
| C[C@H](CC=O)CCCC(C)(C)O | (S)-7-Hydroxy-3,7-dimethyloctanal | -2.387 | eChemPortal |
| FC1CC(F)(F)C(F)(F)C1(F)F (configuration not stated) | 1H,1H,2H-Perfluorocyclopentane | 1.517 | eChemPortal |
| CCC(C)N[Si](C)(NC(C)CC)NC(C)CC (configuration not stated) | Silanetriamine, 1-methyl-N,N',N''-tris(1-methylpropyl)- | -1.663 | eChemPortal |
| CCCCOC(=O)NC(=S)SCCCC | Butyl N-[(butylthio)thioxomethyl]carbamate | -2.444 | eChemPortal |
| COC(C)COC(C)CO (configuration not stated) | 2-(2-Methoxypropoxy)propanol | -0.301 | PubChem |
| Nc1ccc(C(=O)NCCC(=O)O)cc1 | N-(4-Aminobenzoyl)-beta-alanine | -6.138 | eChemPortal |
| CCCCCCCCCCCCOC(=O)CCSCCC(=O)OCCCCCCCCCCCC | Propanoic acid, 3,3'-thiobis-, didodecyl ester | -6.312 | eChemPortal |
| CCCCC(=O)OC(=O)CCCC | valeric anhydride | -1.426 | eChemPortal |
| Cc1nccn1CCc1nc(N)nc(N)n1 | n/a | -8.803 | eChemPortal |
| O=C(O[C@@H](C(=O)O)[C@@H](OC(=O)c1ccccc1)C(=O)O)c1ccccc1 | Dibenzoyl-L-tartaric acid | -9.703 | eChemPortal |
| COCCOCCCn1c(=O)c2c(N)c3c(=O)c4ccccc4c(=O)c3c(N)c2c1=O | n/a | -7.694 | eChemPortal |
| FC(F)(F)C(F)(F)C(F)(F)C(F)(F)C(F)(F)C(F)(F)C(F)(F)C(F)(F)Br | 1-Bromoheptadecafluorooctane | 0.986 | eChemPortal |
| Cc1ccc(NCCO)c([N+](=O)[O-])c1 | Hydroxyethyl-2-nitro-p-toluidine | -5.673 | eChemPortal |
| C=C(C)C(=O)OCC1CCCO1 (configuration not stated) | Tetrahydrofurfuryl methacrylate | -0.694 | eChemPortal |
| COCCCN | 3-Methoxypropylamine | 1.068 | eChemPortal |
| [N-]=[N+]=C1C=C(S(=O)(=O)Cl)c2ccccc2C1=O | 1-Naphthalenesulfonyl chloride, 3-diazo-3,4-dihydro-4-oxo- | -6.806 | eChemPortal |

Excerpt, the final 3 entries:

| SMILES | name | log VP (log10 mmHg) | via |
|---|---|---|---|
| C=C(C)C(=O)OCC1CCCO1 (configuration not stated) | Tetrahydrofurfuryl methacrylate | -0.694 | eChemPortal |
| COCCCN | 3-Methoxypropylamine | 1.068 | eChemPortal |
| [N-]=[N+]=C1C=C(S(=O)(=O)Cl)c2ccccc2C1=O | 1-Naphthalenesulfonyl chloride, 3-diazo-3,4-dihydro-4-oxo- | -6.806 | eChemPortal |

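OPERA's authors assembled the values from existing databases and did not measure them anew. One number stands for a compound and property, with no spread given. Method and conditions are not stated for these values. The measured form (salt, isomer or mixture) is not always the one drawn. Some upstream entries may be estimates or bounds without being marked so.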

Values as listed in the OPERA 2.9 repository of K. Mansouri.